Measurements from patent US20240408271A1, “Functionalized Linkers in Responsive Biomaterials” (priority 2021, published 2024).

Tested on: MC3T3-E1 cells
Format: cell-based
Conditions: MC3T3-E1, without H2O2
Excerpt: FIG. 14C is a graph showing a cell saving study capability test of released ethyl pyruvate and degraded ethyl pyruvate.
As shown in FIGS. 14A and 14B, in vitro cytotoxicity profiles were first established for H2O2 and ethyl pyruvate with MC3T3-E1 pre-osteoblast cells.

With ethyl pyruvate thioketal [EPTK] as the substance, how does the “baseline toxicity of linker” value read?
Its value is “non-toxic”.
